The record followed here is ChEMBL document CHEMBL4229484, “7β-Methyl substituent is a structural locus associated with activity cliff for nepenthone analogues” (2018).

Protein sequences, listed by entry. Tags and fused reporters are not part of them.
UniProt P33535, whole entry: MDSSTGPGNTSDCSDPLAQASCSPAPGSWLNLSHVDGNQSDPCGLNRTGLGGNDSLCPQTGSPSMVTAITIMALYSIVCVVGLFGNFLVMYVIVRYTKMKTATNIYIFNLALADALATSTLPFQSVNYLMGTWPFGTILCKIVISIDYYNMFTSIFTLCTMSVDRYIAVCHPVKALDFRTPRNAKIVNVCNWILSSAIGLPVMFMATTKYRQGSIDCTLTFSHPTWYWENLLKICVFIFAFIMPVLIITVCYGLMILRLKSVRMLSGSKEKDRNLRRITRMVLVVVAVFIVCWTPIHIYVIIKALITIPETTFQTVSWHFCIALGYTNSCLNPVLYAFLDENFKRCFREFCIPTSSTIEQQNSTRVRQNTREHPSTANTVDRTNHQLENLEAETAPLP

The species entered for one test is Homo sapiens. Put plainly: Selectivity ratio of Ki for human MOR expressed in CHO cell membranes to Ki for human KOR expressed in CHO cell membranes.
The target of test [1] is Mu-type opioid receptor (Rattus norvegicus) (UniProt P33535). In words: Agonist activity at rat MOR expressed in CHO cell membranes after 1 hr by [35S]GTPgammaS binding based liquid scintillation counting analysis relative to control.

Molecules are shown by their SMILES.

Broadly, the Emax is the maximal effect, on the per cent scale that the assay sets. `COc1ccc2c3c1O[C@H]1[C@@]4(OC)CC[C@@]5(C[C@]4(C)C(=O)c4ccc(-c6ccccc6)cc4)[C@@H](C2)N(CC2CC2)CC[C@]315`: the Ratio Ki in the test listed under Homo sapiens amounted to 1.8. The Emax in test [1] amounted to 178%.

For `COc1ccc2c3c1O[C@H]1[C@@]4(OC)CC[C@@]5(C[C@]4(C)C(=O)c4ccc(C(F)(F)F)cc4)[C@@H](C2)N(CC2CC2)CC[C@]315`, the Ratio Ki in the test filed under Homo sapiens turned out to be 1.1. The molecule further showed an Emax in test [1] of 216%.

`COc1ccc2c3c1O[C@H]1[C@@]4(OC)CC[C@@]5(C[C@]4(C)C=O)[C@@H](C2)N(CC2CC2)CC[C@]315`: the Emax in test [1] turned out to be 264%.
